Test results taken from patent US7655396B1, “Methods for detecting receptor modulator activity” (Allergan, Inc., priority 2006, dated 2010).
Entries after “also recorded” stand apart in the source; their conditions may differ.

By UniProt entry, the sequences of proteins in these tests, tags left out.
UniProt P30545, whole entry: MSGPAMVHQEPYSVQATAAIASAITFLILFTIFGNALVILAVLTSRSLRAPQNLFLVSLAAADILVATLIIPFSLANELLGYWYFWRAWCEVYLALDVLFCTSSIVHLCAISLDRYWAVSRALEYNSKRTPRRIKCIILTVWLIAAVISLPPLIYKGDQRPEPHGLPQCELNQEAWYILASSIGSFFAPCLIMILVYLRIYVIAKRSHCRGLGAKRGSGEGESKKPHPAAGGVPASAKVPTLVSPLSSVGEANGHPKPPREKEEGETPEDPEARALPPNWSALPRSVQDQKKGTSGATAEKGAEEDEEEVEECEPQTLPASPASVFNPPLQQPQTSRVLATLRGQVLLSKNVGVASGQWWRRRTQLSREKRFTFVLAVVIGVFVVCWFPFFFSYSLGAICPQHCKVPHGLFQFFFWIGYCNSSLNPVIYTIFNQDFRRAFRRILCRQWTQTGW

Target: T1, mouse alpha 2B receptor (m α2B) (Mus musculus, UniProt P30545)
T1 construct: expressed in transfected cells
Experiment: FLIPR calcium flux assay in HEK 293 m α2B/Gqi5 cells (Fluo-4 dye)
Type: cell-based
Conditions: for activity (ratio of peak height divided by background fluorescence): FIGS. 3A-3C, 1 to 10^4 nM, FLIPR buffer without HEPES, commercial screening company
Text: This example describes the methodology used in assaying compounds for the ability to modulate the α2B receptor in a high throughput assay format in which the “readout” is the measurement of a change in intracellular calcium flux due to the use of the “promiscuous” Gqi5 hybrid G-protein, linking the α2B receptor (normally coupled to the adenylyl cyclase pathway) to the PLC pathway. Changes in intracellular calcium flux are monitored using a dye that becomes fluorescent when it binds free Ca^++ ion.
HEK 293 cells are stably co-transfected with two plasmids, the first encoding the mouse alpha 2B receptor (m α2B), and the second encoding the hybrid Gqi5 protein. […] The nucleotide sequence encoding the human Gqi5 protein is contained in the reference Aiyar et al., Human AT1 receptor is a single copy gene: characterization in a stable cell line. Mol. Cell. […] These references are hereby all incorporated by reference herein. […]
Each well of cells (in a 96 well microtiter dish) is assayed for activity in the FLIPR assay using the Fluo-4® calcium indicator dye to detect calcium flux. The structure of this dye, which can be purchased from Molecular Probes, Inc., is as follows:
The cells are loaded with this dye using the manufacturer's recommendations, and washed 3× with FLIPR Buffer. Assays are conducted at room temperature (unless otherwise indicated in the following examples). […] Only cells releasing Ca++ into the cytosol of the cells (thereby permitting Ca++ binding to the Fluo-4 dye) will have increased fluorescent emission at 520 nm.
Images of the illuminated cells are captured with a charge-coupled device (CCD) camera; CCD technology is adapted for producing high-resolution images in conditions of ultra low light. Images are collected at the rate of 60 images/minute (1 image per second) in each well. After 10 seconds, 50 μl of the test compound is pipetted into the well, and further images are collected at 1 second intervals for an additional 60 seconds, then at 15 second intervals for 4 minutes. Test compounds are prepared from 10^-2 M stocks in DMSO. Compounds are diluted in the FLIPR buffer to a final DMSO concentration of about 1%.
All images are stored on a computer hard drive for later retrieval and analysis.

[1] = FIG. 1, assay carried out at 35° C., 96 well
[2] = FIG. 2, second experiment, 35° C., 96 well
[3] = FIG. 2, second experiment, 35° C., norepinephrine standard

Compound	EC50 (32° C., FIG. 4B) [nM]	relative efficacy (32° C., FIG. 4B) [%]	EC50 (35° C., FIG. 4C) [nM]	relative efficacy (35° C., FIG. 4C) [%]	EC50 (37° C., FIG. 4D) [nM]	relative efficacy (37° C., FIG. 4D) [%]	EC50 [1] [nM]	relative efficacy compared to a norepinephrine standard [1] [%]	EC50 [2] [nM]	relative efficacy [3] [%]	activity (ratio of peak height divided by background fluorescence) (room temperature, 384 well)	EC50 (Room Temp., FIG. 4A) [nM]	relative efficacy (Room Temp., FIG. 4A) [%]	maximum ratio over background (FIG. 3C, room temperature, 384 well)
Clc1cccc(Cl)c1N=C1NCCN1 [Clonidine]	46	25	74	40	13	32	24	29	33	26	shows no activity; also recorded: do not show activity to any significant degree	120	5	
Brimonidine	36	52	38	63	16	53	43	59	55	70		78	63	about 2.5
prazosin											only norepinephrine shows activity above background			
